Measured values published in patent US20200317660A1, “Quinazolinone Compound and Application Thereof” (LUOXIN PHARMACEUTICAL (SHANGHAI) CO., LTD., priority 2017, published 2020).

Sequences of proteins named here, by UniProt entry; tags and fusion partners are left off.
UniProt P42338, whole entry: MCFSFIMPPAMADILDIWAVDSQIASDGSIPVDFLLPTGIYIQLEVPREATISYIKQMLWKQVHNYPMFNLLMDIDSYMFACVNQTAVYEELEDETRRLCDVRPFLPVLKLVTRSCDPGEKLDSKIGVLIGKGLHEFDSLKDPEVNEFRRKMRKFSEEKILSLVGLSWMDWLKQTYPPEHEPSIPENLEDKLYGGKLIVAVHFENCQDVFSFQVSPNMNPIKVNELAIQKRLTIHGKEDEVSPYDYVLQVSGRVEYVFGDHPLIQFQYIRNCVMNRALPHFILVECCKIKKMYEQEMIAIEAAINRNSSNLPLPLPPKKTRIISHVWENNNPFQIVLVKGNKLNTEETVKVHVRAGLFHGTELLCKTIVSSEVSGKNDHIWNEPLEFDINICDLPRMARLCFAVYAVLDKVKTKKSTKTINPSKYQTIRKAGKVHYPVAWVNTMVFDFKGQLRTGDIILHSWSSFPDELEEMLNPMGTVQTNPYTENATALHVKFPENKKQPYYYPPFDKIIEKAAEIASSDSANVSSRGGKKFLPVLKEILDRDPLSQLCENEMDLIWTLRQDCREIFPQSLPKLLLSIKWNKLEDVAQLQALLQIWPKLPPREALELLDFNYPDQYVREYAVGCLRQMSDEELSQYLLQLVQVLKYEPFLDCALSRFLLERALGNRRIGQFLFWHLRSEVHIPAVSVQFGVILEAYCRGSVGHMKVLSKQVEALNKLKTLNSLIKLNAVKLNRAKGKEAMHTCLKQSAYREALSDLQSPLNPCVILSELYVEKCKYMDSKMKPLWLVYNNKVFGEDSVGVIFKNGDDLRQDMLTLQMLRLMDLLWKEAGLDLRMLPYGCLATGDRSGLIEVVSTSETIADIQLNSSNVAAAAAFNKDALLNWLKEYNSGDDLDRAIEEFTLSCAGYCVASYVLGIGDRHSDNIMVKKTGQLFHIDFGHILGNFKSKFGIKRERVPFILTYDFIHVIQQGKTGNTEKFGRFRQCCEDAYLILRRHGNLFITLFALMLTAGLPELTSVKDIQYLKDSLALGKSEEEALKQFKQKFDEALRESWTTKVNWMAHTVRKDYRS
UniProt P42336, whole entry: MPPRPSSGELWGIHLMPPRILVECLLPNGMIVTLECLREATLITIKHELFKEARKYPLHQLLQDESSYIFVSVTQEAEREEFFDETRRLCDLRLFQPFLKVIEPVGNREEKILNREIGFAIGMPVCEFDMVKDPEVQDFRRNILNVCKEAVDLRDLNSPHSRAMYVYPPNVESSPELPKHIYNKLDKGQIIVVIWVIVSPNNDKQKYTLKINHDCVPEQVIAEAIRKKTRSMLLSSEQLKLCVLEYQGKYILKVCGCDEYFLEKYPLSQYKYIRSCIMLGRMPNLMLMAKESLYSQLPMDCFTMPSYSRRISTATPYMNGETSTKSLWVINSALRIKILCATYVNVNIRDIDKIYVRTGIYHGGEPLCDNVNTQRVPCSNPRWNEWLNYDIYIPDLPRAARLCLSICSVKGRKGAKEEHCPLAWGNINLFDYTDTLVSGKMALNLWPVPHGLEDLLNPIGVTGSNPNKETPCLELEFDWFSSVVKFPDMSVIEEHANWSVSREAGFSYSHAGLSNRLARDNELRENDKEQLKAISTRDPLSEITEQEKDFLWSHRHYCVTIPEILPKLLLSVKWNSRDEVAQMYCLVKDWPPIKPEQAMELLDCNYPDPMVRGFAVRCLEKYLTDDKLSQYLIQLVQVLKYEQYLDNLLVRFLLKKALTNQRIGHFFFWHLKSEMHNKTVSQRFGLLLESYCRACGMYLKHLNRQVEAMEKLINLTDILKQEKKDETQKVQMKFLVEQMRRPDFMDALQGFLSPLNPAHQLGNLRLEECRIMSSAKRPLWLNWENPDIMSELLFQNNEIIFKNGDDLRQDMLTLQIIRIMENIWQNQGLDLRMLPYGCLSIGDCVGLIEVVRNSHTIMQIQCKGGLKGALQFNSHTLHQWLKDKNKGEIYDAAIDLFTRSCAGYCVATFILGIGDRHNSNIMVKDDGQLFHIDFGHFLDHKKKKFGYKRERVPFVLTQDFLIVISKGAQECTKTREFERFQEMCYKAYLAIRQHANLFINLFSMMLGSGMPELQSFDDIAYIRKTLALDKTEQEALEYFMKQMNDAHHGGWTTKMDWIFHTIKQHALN
UniProt P27986, whole entry partner: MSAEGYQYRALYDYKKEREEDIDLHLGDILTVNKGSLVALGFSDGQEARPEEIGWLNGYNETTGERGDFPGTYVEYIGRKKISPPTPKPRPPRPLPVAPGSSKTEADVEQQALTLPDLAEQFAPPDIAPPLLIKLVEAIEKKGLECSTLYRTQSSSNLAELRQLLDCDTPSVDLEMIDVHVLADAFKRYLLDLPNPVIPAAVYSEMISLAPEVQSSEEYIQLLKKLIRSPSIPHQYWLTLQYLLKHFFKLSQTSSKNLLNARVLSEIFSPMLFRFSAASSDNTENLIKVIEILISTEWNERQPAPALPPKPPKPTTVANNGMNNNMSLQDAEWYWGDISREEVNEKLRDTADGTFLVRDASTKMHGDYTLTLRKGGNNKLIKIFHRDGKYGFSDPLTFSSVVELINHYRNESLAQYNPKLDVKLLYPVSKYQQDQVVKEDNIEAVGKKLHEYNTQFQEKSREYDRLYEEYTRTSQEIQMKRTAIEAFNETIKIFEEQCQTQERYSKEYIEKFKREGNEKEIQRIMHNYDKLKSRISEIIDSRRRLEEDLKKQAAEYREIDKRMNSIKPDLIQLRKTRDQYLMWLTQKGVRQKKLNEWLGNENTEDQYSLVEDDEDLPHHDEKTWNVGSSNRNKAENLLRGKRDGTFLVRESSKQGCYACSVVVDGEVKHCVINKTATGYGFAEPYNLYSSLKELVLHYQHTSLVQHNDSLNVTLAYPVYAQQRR

What was measured:
PI3Kβ = PI3Kβ (Homo sapiens, UniProt P42338); assay: In vitro test of enzyme activity (ADP-Glo lipokinase), PI3K beta; settings: read-out: PI3Kβ IC50, 40 μM ATP, 50 μM PIP2:3PS, 120 min
PI3Kα = PI3Kα (Homo sapiens, UniProt P42336); assay: In vitro test of enzyme activity (ADP-Glo lipokinase), PI3K alpha; settings: read-out: PI3Kα IC50, 40 μM ATP, 50 μM PIP2:3PS, 120 min

SMILES | IC50 (PI3Kβ) [nM] | IC50 (PI3Kα) [nM]
CNC(=O)C(C)Cn1cnc2ccc(-c3cnc(OC)c(NS(=O)(=O)c4ccc(F)c(C)c4)c3)cc2c1=O (single isomer, unassigned) [WX154] | 620 | 7.22
CNC(=O)C(C)Cn1cnc2ccc(-c3cnc(OC)c(NS(=O)(=O)c4ccc(F)c(F)c4)c3)cc2c1=O (single isomer, unassigned) [WX133] | 466 | 5.02
COc1ncc(-c2ccc3ncn(CC(C)C(=O)NC4COC4)c(=O)c3c2)cc1NS(=O)(=O)c1ccc(F)cc1Cl (single isomer, unassigned) [WX083] | 548 | 2.09
Cc1nc(C)c(S(=O)(=O)Nc2cc(-c3ccc4ncn(CC(C)C(N)=O)c(=O)c4c3)cnc2C)s1 (single isomer, unassigned) [WX033] | 126 | 1.09
CNC(=O)C(C)Cn1cnc2cc(F)c(-c3cnc(OC)c(NS(=O)(=O)c4ccc(F)cc4Cl)c3)cc2c1=O (single isomer, unassigned) [WX122] | 2260 | 54.6
CNC(=O)C(C)Cn1cnc2ccc(-c3cnc(OC)c(NS(=O)(=O)c4cccc(C)c4)c3)cc2c1=O (single isomer, unassigned) [WX141] | 745 | 9.76
CNC(=O)C(C)Cn1cnc2ccc(-c3cnc(OC)c(NS(=O)(=O)c4ccc(C)c(C)c4)c3)cc2c1=O (single isomer, unassigned) [WX169] | 386 | 14.1
CNC(=O)C(C)Cn1cnc2ccc(-c3cnc(OC)c(NS(=O)(=O)c4ccc(C)cc4F)c3)cc2c1=O (single isomer, unassigned) [WX135] | 166 | 2.32
CNC(=O)C(C)Cn1cnc2ccc(-c3cnc(OC)c(NS(=O)(=O)c4cc(C)ccc4C)c3)cc2c1=O (single isomer, unassigned) [WX171] | 443 | 8.87
CNC(=O)C(C)Cn1cnc2ccc(-c3cnc(OC)c(NS(=O)(=O)c4cc(C)cc(C)c4)c3)cc2c1=O (single isomer, unassigned) [WX144] | 631 | 24
CNC(=O)C(C)Cn1cnc2ccc(-c3cnc(OC)c(NS(=O)(=O)c4ccc(F)cc4Cl)c3)c(F)c2c1=O (single isomer, unassigned) [WX123] | 268 | 9.27
CNC(=O)C(C)Cn1cnc2ccc(-c3cnc(OC)c(NS(=O)(=O)c4ccccc4F)c3)cc2c1=O (single isomer, unassigned) | 133 | 5.12
CNC(=O)C(C)Cn1cnc2ccc(-c3cnc(OC)c(NS(=O)(=O)c4cc(C)cc(Cl)c4)c3)cc2c1=O (single isomer, unassigned) | 222 | 3.58
CNC(=O)[C@H]1C[C@@H](n2cnc3ccc(-c4cncc(NS(=O)(=O)c5ccc(F)cc5Cl)c4)cc3c2=O)C1 | 1050 | 9.85
CNC(=O)C(C)Cn1cnc2ccc(-c3cnc(OC)c(NS(=O)(=O)c4cccc(C)c4)c3)cc2c1=O (single isomer, unassigned) [WX140] | 543 | 18.7
CNC(=O)C(C)Cn1cnc2ccc(-c3cnc(OC)c(NS(=O)(=O)c4c(F)cccc4F)c3)cc2c1=O (single isomer, unassigned) [WX102] | 94.4 | 4.1
CNC(=O)C(C)Cn1cnc2ccc(-c3cnc(OC)c(NS(=O)(=O)c4ccc(F)cc4Cl)c3)c(F)c2c1=O (single isomer, unassigned) [WX124] | 674 | 7.18
CNC(=O)C(C)Cn1cnc2ccc(-c3cnc(OC)c(NS(=O)(=O)c4cccc(F)c4C)c3)cc2c1=O (single isomer, unassigned) [WX215] | 168 | 4.11
CNC(=O)C(C)Cn1cnc2ccc(-c3cnc(OC)c(NS(=O)(=O)c4cccc(Cl)c4Cl)c3)cc2c1=O (single isomer, unassigned) [WX150] | 81 | 1.67

SMILES | IC50 (PI3Kβ) [nM] | IC50 (PI3Kα) [nM]
CNC(=O)C(C)Cn1cnc2ccc(-c3cnc(OC)c(NS(=O)(=O)c4cc(F)ccc4F)c3)cc2c1=O (single isomer, unassigned) [WX223] | 184 | 5.37
COc1ncc(-c2ccc3ncn(CC(C)C(=O)NC4COC4)c(=O)c3c2)cc1NS(=O)(=O)c1ccc(F)cc1Cl (single isomer, unassigned) [WX082] | 192 | 4.57
CNC(=O)[C@H]1C[C@H](n2cnc3ccc(-c4cncc(NS(=O)(=O)c5ccc(F)cc5Cl)c4)cc3c2=O)C1 | 746 | 3.69
COc1ncc(-c2ccc3ncn(CC(C)C(=O)NC4CC4)c(=O)c3c2)cc1NS(=O)(=O)c1ccc(F)cc1Cl (single isomer, unassigned) [WX077] | 305 | 7.69
CNC(=O)C(C)Cn1cnc2ccc(-c3cnc(OC)c(NS(=O)(=O)c4ccc(C(F)(F)F)cc4)c3)cc2c1=O (single isomer, unassigned) [WX148] | 381 | 7.69
CNC(=O)C(C)Cn1cnc2ccc(-c3cnc(OC)c(NS(=O)(=O)c4ccccc4Cl)c3)cc2c1=O (single isomer, unassigned) [WX146] | 95.4 | 2.7
CNC(=O)C(C)Cn1cnc2ccc(-c3cnc(OC)c(NS(=O)(=O)c4ccc(F)cc4F)c3)cc2c1=O (single isomer, unassigned) [WX090] | 124 | 3.94
CNC(=O)C(C)Cn1cnc2ccc(-c3cnc(OC)c(NS(=O)(=O)c4cccc(Cl)c4)c3)cc2c1=O (single isomer, unassigned) [WX165] | 250 | 5.05
Cc1ccsc1S(=O)(=O)Nc1cc(-c2ccc3ncn(CC(C)C(N)=O)c(=O)c3c2)cnc1C (single isomer, unassigned) [WX026] | 928 | 5.4
CNC(=O)C(C)Cn1cnc2ccc(-c3cnc(OC)c(NS(=O)(=O)c4ccc(Cl)cc4)c3)cc2c1=O (single isomer, unassigned) [WX130] | 215 | 7.11
CNC(=O)C(C)Cn1cnc2ccc(-c3cnc(N(C)C)c(NS(=O)(=O)c4ccc(F)cc4Cl)c3)cc2c1=O (single isomer, unassigned) | 500 | –
CNC(=O)C(C)Cn1cnc2ccc(-c3cnc(OC)c(NS(=O)(=O)c4ccc(Cl)c(C)c4)c3)cc2c1=O (single isomer, unassigned) | 312 | 7.04
CNC(=O)C(C)Cn1cnc2ccc(-c3cnc(OC)c(NS(=O)(=O)c4cccc(F)c4)c3)cc2c1=O (single isomer, unassigned) [WX163] | 268 | 6.51
CNC(=O)C(C)Cn1cnc2ccc(-c3cnc(OC)c(NS(=O)(=O)c4sccc4C)c3)cc2c1=O (single isomer, unassigned) | 182 | 6.77
Cc1ccsc1S(=O)(=O)Nc1cc(-c2ccc3ncn(CC(C)C(N)=O)c(=O)c3c2)cnc1C (single isomer, unassigned) [WX027] | 582 | 9.01
CNC(=O)C(C)Cn1cnc2ccc(-c3cnc(OC)c(NS(=O)(=O)c4cc(C)ccc4F)c3)cc2c1=O (single isomer, unassigned) [WX172] | 104 | 3.13
CCOc1ncc(-c2ccc3ncn(CC(C)C(=O)NC)c(=O)c3c2)cc1NS(=O)(=O)c1ccc(F)cc1Cl (single isomer, unassigned) [WX159] | 2100 | –
CNC(=O)C(C)Cn1cnc2ccc(-c3cnc(N)c(NS(=O)(=O)c4ccc(F)cc4Cl)c3)cc2c1=O (single isomer, unassigned) | 5460 | –
